Values of other authors in PMC3634732, “Chemical Chaperones Exceed the Chaperone Effects of RIC-3 in Promoting Assembly of Functional α7 AChRs” (PLoS ONE, 2013).
pEC50: −log10 of the molar value. Where two headings read alike, the source gives them in different places.

Tested on: mouse α7 AChRs
Details: cited from earlier work

## CC(=O)OCC[N+](C)(C)C [ACh]
Net charge
  pEC50: 4.88
Peak current values
  pEC50: 3.35
